## Yeast mating assay 2: variants of the scFv Ab-95

From the AlphaSeq antibody data of Engelhart et al. 2022 (doi:10.1038/s41597-022-01779-4), copy in the FLAb collection.

All variants were tested on one target, the spike HR2 peptide PDVDLGDISGINAS (SARS-CoV-2).

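AAYL52 was designed without a model: most single CDR substitutions and a random sample of double and triple ones. The scFvs were displayed on barcoded MATa yeast, the peptide on MATalpha yeast. The frequency of each diploid, read from paired DNA barcodes, reflects how well the two displayed proteins bind. A regression on co-assayed BCL2-family reference pairs converts the normalised counts of each replicate to an apparent Kd. Each pool was mated in three replicate cultures.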

The variants keep the heavy chain, the linker and the frameworks of Ab-95 (scFv order VH, a (GGGGS)3 linker, VL).
VH: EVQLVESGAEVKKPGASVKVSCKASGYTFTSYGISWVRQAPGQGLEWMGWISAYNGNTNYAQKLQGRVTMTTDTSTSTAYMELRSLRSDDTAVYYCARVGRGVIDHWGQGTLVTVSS
VL: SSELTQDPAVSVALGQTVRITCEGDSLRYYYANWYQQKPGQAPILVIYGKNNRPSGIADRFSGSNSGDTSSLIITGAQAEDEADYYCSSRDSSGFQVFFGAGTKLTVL

Positions count from residue 1 of the parent VL; Q96H puts H in place of Q.
This list gathers variants with a substitution at Q96 (VL, numbered from residue 1).
Numbers give log10(Kd / nM), so 0 is 1 nM and 3 is 1 µM. Smaller is tighter.
Averages over replicates are reported, and they cover detected replicates only.
A pair that was not seen in that replicate is written "ND"; this usually means weak binding, but a binder can also be missed.
As a blank, each scFv also met three strains without target: over library AAYL52, 28% of these pairings were detected, typically at 3.91 and seldom below 2.90.
In this assay the parent's reference entry averaged 2.31; its copy inside this library read 2.25.

For Q96H, the assay gave 2.32, 2.13, 1.78 (mean 2.08).
For S26G/Q96V, the assay gave 2.97, 3.46, 3.74 (mean 3.39).
For D91E/S92N/Q96L, the assay gave ND, 3.66, ND.
For Y29T/S55V/Q96I, the assay gave 2.53, 1.75, 2.20 (mean 2.16).
For Q96E, the assay gave 2.32, 2.57, 2.74 (mean 2.54).
For G49I/P54T/Q96C, the assay gave 3.16, ND, ND.
For Y29A/Y31Q/Q96M, the assay gave 1.51, 1.31, 0.87 (mean 1.23).
For R53Y/S92Y/Q96K, the assay gave 4.08, ND, ND.
For G24I/S93K/Q96R, the assay gave ND, ND, ND.
For E23W/Q96V/F98Q, the assay gave 3.50, ND, ND.
For P54W/Q96D, the assay gave ND, 3.25, 3.81 (mean 3.53).
For Y29P/Q96P, the assay gave 3.62, ND, 3.91 (mean 3.76).
For N51I/Q96S/V97A, the assay gave 4.85, 3.84, ND (mean 4.34).
For D25N/F95C/Q96C, the assay gave 1.84, 1.75, 1.51 (mean 1.70).
For G49C/Q96C/F98V, the assay gave ND, 4.24, ND.
For E23K/N52T/Q96K, the assay gave 2.26, 2.00, 1.79 (mean 2.02).
For R28P/Y31M/Q96G, the assay gave 2.43, 2.73, 2.69 (mean 2.62).
For R90V/F95G/Q96E, the assay gave 3.85, ND, 4.22 (mean 4.03).
For N52L/F95H/Q96C, the assay gave ND, ND, ND.
For Y29D/Q96C, the assay gave 2.72, 2.48, 2.76 (mean 2.66).
For S93R/Q96G/V97D, the assay gave ND, 5.43, 3.74 (mean 4.58).
For E23N/G94M/Q96K, the assay gave ND, ND, ND.
For S89K/R90N/Q96L, the assay gave 2.98, 3.04, 3.20 (mean 3.08).
For G24L/F95Q/Q96V, the assay gave 3.42, 3.48, 3.45 (mean 3.45).
For G49Q/Q96S, the assay gave 4.21, ND, 3.04 (mean 3.62).
For Y29E/R53K/Q96G, the assay gave 3.81, 3.87, 4.25 (mean 3.97).
For R90N/Q96D, the assay gave 4.98, 4.66, ND (mean 4.82).
For L27E/D91P/Q96V, the assay gave 3.91, ND, ND.
For E23D/Q96D, the assay gave 2.56, 2.77, 2.44 (mean 2.59).
For Q96S/F98W, the assay gave 2.34, 2.24, 2.25 (mean 2.28).
For S92D/S93Q/Q96D, the assay gave 2.44, 2.34, 2.44 (mean 2.41).
For N33P/R53D/Q96V, the assay gave ND, ND, ND.
For N52G/G94H/Q96W, the assay gave 3.20, 3.37, ND (mean 3.29).
For G49W/R53G/Q96S, the assay gave ND, 5.58, ND.
For S55Q/F95I/Q96F, the assay gave ND, 4.13, 3.48 (mean 3.80).
For L27V/R53L/Q96N, the assay gave ND, 3.35, ND.
For G49N/S88Q/Q96C, the assay gave ND, ND, ND.
For L27P/S89M/Q96F, the assay gave 4.82, ND, 3.00 (mean 3.91).
For R28Q/N33G/Q96E, the assay gave 3.56, 4.47, ND (mean 4.01).
For S26E/Y29G/Q96Y, the assay gave 2.54, 2.31, 1.93 (mean 2.26).
For D25K/N33P/Q96K, the assay gave 4.65, 4.04, 5.03 (mean 4.57).
For G94R/Q96C/F98K, the assay gave ND, ND, ND.
For N51R/S88F/Q96P, the assay gave 3.52, 4.10, 3.91 (mean 3.84).
For P54Q/Q96I, the assay gave 4.08, 3.31, 3.20 (mean 3.53).
For A32F/S93R/Q96K, the assay gave 4.87, ND, ND.
For Y31M/K50Q/Q96A, the assay gave 1.89, 2.29, 2.46 (mean 2.21).

For reference, 6 entries of the list once more:

{"changes": "G24I/S93K/Q96R", "log10 Kd (nM) by replicate": "ND, ND, ND", "mean log10 Kd (nM)": "ND"}
{"changes": "L27P/S89M/Q96F", "log10 Kd (nM) by replicate": "4.82, ND, 3.00", "mean log10 Kd (nM)": "3.91"}
{"changes": "L27V/R53L/Q96N", "log10 Kd (nM) by replicate": "ND, 3.35, ND", "mean log10 Kd (nM)": "3.35"}
{"changes": "R53Y/S92Y/Q96K", "log10 Kd (nM) by replicate": "4.08, ND, ND", "mean log10 Kd (nM)": "4.08"}
{"changes": "E23W/Q96V/F98Q", "log10 Kd (nM) by replicate": "3.50, ND, ND", "mean log10 Kd (nM)": "3.50"}
{"changes": "R90N/Q96D", "log10 Kd (nM) by replicate": "4.98, 4.66, ND", "mean log10 Kd (nM)": "4.82"}